Experimental data published in ChEMBL document CHEMBL1275563, “Genetic characterization of Vga ABC proteins conferring reduced susceptibility to pleuromutilins in Staphylococcus aureus” (2008).

Experiments:
[1] = test system: Staphylococcus aureus; details: RN4220
[2] = test system: Staphylococcus aureus; details: RN4220; remark: listed apart in the source
[3] = test system: Staphylococcus aureus; details: ATCC 29213

Measured: MIC

GENTAMICIN
0.5 µg/mL: all assays above
